Sampled rows, rich in hits. Any-hit rate of the full collection: about 16%.
TDP1 block – inhibitors of human tyrosyl-DNA phosphodiesterase TDP1; Q9NUW8; recombinant TDP1, AlphaScreen DNA substrate cleavage; AID 485290; 350,000 compounds, 0.28% hits; Potency, µM (titrated, usually from 130 µM), hits mostly inhibitors; further: nearly all actives have a fitted effect of over 40% in size
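Compounds were preincubated with Tdp1 (1 nM final) for 15 min at room temperature before substrate (15 nM final) started a 5 min reaction; beads (10 ug/ml final) were then added for 10 min before AlphaScreen detection.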
miR-21 FLuc – miR-21 reporter, rising signal | 340,000 tested, under 10 active | AID 2288 | HeLa miR-21 FLuc reporter, luciferase, 48 h | Potency, µM (titrated, usually from 38.3 µM); active = well fitted rising curve with a large enough effect; inconclusive = small, poorly fitted or top-dose-only effect; inactive = no such curve, though single readings can be large or run the other way;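 further: miR-21 action dims this reporter so a rising signal means less miR-21 action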
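HeLa miR-21-FLuc reporter line, endogenous miR-21; 2000 cells/well in DMEM/10% FBS; compound titration up to ~40uM final, 48 h, 37 degree Celsius; luciferase detection reagent, 15 min lysis, CCD luminescence.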
uPA generation – blocks generation of uPA at the cell surface; cell surface uPA generation assay, qHTS; Potency, µM (doses to about 38.3 µM), most hits filed as inhibitors; 330,000 compounds, 0.31% hits; active means well fitted inhibition curve with a large enough effect; inconclusive means small, poorly fitted or top-dose-only effect; inactive means no such curve, though single readings can be large or run the other way; tested in mouse RAW 264.7 cells; further: nearly all actives have a fitted effect of over 55% in size
TDP1 cell CPT – growth inhibition of DT40 Tdp1-/-;hTDP1 cells with camptothecin (screen for TDP1 inhibitors); chicken DT40 Tdp1-/-;hTDP1 cells + 20 nM CPT, ATP luminescence, 48 h; Potency, µM (doses to about 46.2 µM), hits mostly inhibitors; 420,000 compounds, 12% hits; AID 686979; further: nearly all actives have a fitted effect of over 55% in size
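Chicken DT40 Tdp1-/- cells stably complemented with human TDP1 were seeded at 400 cells/well in medium containing 20 nM camptothecin, exposed to pin-transferred compounds, and grown at 37 °C for at least 48 hr. Viability was read as ATP luminescence.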
TDP1 cell noCPT – qHTS for Inhibitors of human tyrosyl-DNA phosphodiesterase 1 (TDP1): qHTS in cells in absence of CPT; DT40 Tdp1-/- hTDP1 cells, no CPT, ATP luminescence, 48 h; Potency, µM (titrated, usually from 46.2 µM), usual class: inhibitors; 420,000 compounds, 15% hits; AID 686978, 2013; further: nearly all actives have a fitted effect of over 55% in size
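Camptothecin absent (DMSO only). Human TDP1-complemented DT40 knockout cells, 400 cells/well, 37 °C for minimum 48 hr; ATP measured via CellTiter-Glo, 30 min dark incubation, luminescence.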
A number is an active result; – = inactive; ? = inconclusive; · = not tested or not shown; [ ] = remark or other dose. Unless noted, the call rests on the fitted dose curve; in most records, active means well fitted curve in the direction sought with a large enough effect; inconclusive means small, poorly fitted or top-dose-only effect, or another doubt; inactive means no such curve, though single readings can be large; an effect the other way counts as inactive or inconclusive.

SMILES | TDP1 block | miR-21 FLuc | uPA generation | TDP1 cell CPT | TDP1 cell noCPT
Cc1ccc(S(=O)(=O)N(C)C)cc1NC(=O)c1cc(=O)[nH]c2ccccc12 | · | – | – | – | ?
CN(CC(=O)Nc1cc(S(=O)(=O)N2CCCC2)ccc1Cl)Cc1cccs1 | – | – | ? | ? | 16µM
Cc1cc(C)n(-c2nc(C)nc3c2cnn3-c2ccccc2)n1 | – | – | – | – | –
Cc1nc(SCC(=O)Nc2ccccn2)n[nH]1 | – | – | – | – | –
COc1ccc(-c2ccnc(SCC(=O)Nc3ccccn3)n2)cc1 | – | – | – | ? | 18µM
COc1ccc(C(=O)NCC(=O)OCC(=O)Nc2cccc(S(=O)(=O)N3CCCC3)c2)cc1 | · | – | – | – | –
CC(=O)Nc1ccccc1OCC(=O)NC(C)c1ccccc1 (configuration not stated) | – | – | – | – | –
CC(=O)Nc1ccccc1OCC(=O)N(Cc1ccccc1)C(C)C | – | – | – | 16µM | 13µM
CC1(C)CN(c2ccccc2)N(Cc2ccc(F)cc2)C1=O | – | – | · | 9.2µM | 9.2µM
CC(=O)N1CCN(C(=O)CCNC(=O)c2ccc(Br)cc2)CC1 | · | · | – | – | –
CCCSc1nnc(CNC(=O)C23CC4CC(CC(C4)C2)C3)n1Cc1ccccc1 | – | – | – | 16µM | ?
O=C(NCc1nnc(SCc2ccc(F)cc2)n1-c1ccc(F)cc1)C12CC3CC(CC(C3)C1)C2 | – | – | – | 15µM | 29µM
CCSc1nnc(CNC(=O)C23CC4CC(CC(C4)C2)C3)n1Cc1ccccc1 | – | – | – | ? | ?
CCSc1nnc(CNC(=O)C23CC4CC(CC(C4)C2)C3)n1C1CCCCC1 | – | – | – | 23µM | 26µM
COCCCn1cc(CN2CC(N3CCN(Cc4cccc(C)c4)CC3)CS2(=O)=O)nn1 (configuration not stated) | · | · | · | – | –
COC(=O)N1CCC2(CCN(C(=O)Nc3ccc(OC)cc3)CC2)CC1 | · | · | · | – | –
COCCCNc1c2c3c(cccc3[nH]c1=O)C(=O)c1ccccc1-2 | – | – | ? | 15µM | 16µM
Cc1cc(C)nc(NC(=O)Cc2cccs2)n1 | – | – | – | – | –
Oc1c(Br)cc(Br)cc1C=Nc1ccc2c(c1)OCCO2 | – | – | – | – | ?
Oc1c(Br)cc(Br)cc1/C=N/c1nc2c(s1)CCCC2 | · | · | – | ? | 16µM
Oc1ccc2ccccc2c1/C=N/c1nc2c(s1)CCCC2 | – | – | – | ? | 29µM
CC(CCc1ccc(O)cc1)N1CCOc2c(O)cc(-c3nc4ccccc4s3)cc2C1 (configuration not stated) | · | · | · | 18µM | 16µM
Oc1ccc(Cl)cc1CN1CCOc2c(O)cc(-c3nc4ccccc4s3)cc2C1 | · | · | · | –[9.04 µM] | ?
O=[N+]([O-])c1ccc(O)c(N=Cc2sc3ccccc3c2O)c1 | – | – | – | 21µM | 12µM
O=[N+]([O-])c1ccc(O)c(C=Nc2cccc3ccccc23)c1 | – | – | – | – | –
SMILES | TDP1 block | miR-21 FLuc | uPA generation | TDP1 cell CPT | TDP1 cell noCPT
COC(=O)COc1cccc2c(=O)n(CC(=O)NCc3ccc(F)cc3)ccc12 | · | – | 0.63µM | 1µM | 1.2µM
CCOC(=O)COc1cccc2c(=O)n(CC(=O)NCc3ccc4c(c3)OCO4)ccc12 | – | – | 1µM | 1.8µM | 1.8µM
CCOC(=O)COc1cccc2c(=O)n(CC(=O)NCCc3ccccc3)ccc12 | – | – | – | – | –
CCOC(=O)C(C)Oc1cccc2c(=O)n(CC(=O)NCc3ccc(F)cc3)ccc12 (configuration not stated) | · | – | 0.32µM | 0.82µM | 0.73µM
CCOC(=O)C(C)Oc1cccc2c(=O)n(CC(=O)NCc3ccccc3)ccc12 (configuration not stated) | · | – | – | 0.58µM | 0.92µM
COC(=O)COc1cccc2c(=O)n(CC(=O)N3CCCCC3)ccc12 | · | – | – | – | –
CSCC(C)N1CCC(n2nccc2NC(=O)c2ccccc2C)CC1 (configuration not stated) | – | – | – | – | –
Cc1ccc(C)c(S(=O)(=O)N2CCCC2CNC(=O)C(=O)NCc2ccccc2)c1 (configuration not stated) | –[0.505 µM] | · | – | – | ?
CCCc1nc2nc(C)c(NS(=O)(=O)c3ccc(Cl)cc3)c(=O)n2[nH]1 | – | – | – | – | –
CCc1cccc(CC)c1NC(=O)c1ccc(-n2cncn2)nc1 | – | – | – | – | –
COc1ccccc1CNC(=O)C1CCCCN1S(=O)(=O)c1ccccc1 (configuration not stated) | · | – | – | ? | –
CN(Cc1nccs1)C(=O)C1CCC(=O)N(CCc2cccc(F)c2)C1 (configuration not stated) | – | – | – | – | –
COc1cc(-c2cc(NC(C)=O)c3ncc(-c4ccc(F)cc4)n3c2)cc(OC)c1OC | · | · | · | ? | 15µM
COc1cc(-c2cc(NC(C)=O)c3ncc(-c4ccc(C(C)=O)cc4)n3c2)cc(OC)c1OC | · | · | · | 29µM | ?
COc1cc(C(=O)NC(=S)Nc2csc(-c3ccc(F)cc3)n2)cc(OC)c1OC | – | – | – | – | ?
CCc1noc(C)c1C(=O)N1CCCSC1=Nc1ccccc1 | · | · | – | – | –
CCc1noc(C)c1C(=O)N1CCSC1=Nc1cccc(Cl)c1C | – | – | – | ? | 23µM
O=C(Cc1cccs1)N=Nc1c(O)[nH]c2ccc(Br)cc12 | – | – | – | 26µM | ?
O=C(Cc1cccs1)N=Nc1c(O)[nH]c2ccccc12 | · | – | – | – | –
O=C(Cn1c(C(F)(F)F)nc2ccccc21)N=Nc1c(O)[nH]c2ccc(Br)cc12 | – | – | – | ? | 18µM
CCOC(=O)N1CCN(S(=O)(=O)CCNC(=O)c2ccccc2)CC1 | · | · | – | – | –
Cc1cc(C)c2c(=O)n3c(nc2c1)C(CC(C)C)NC(=O)c1cccnc1-3 (configuration not stated) | · | · | · | ? | 23µM
COc1ccc2nc3n(c(=O)c2c1)-c1cc(Cl)ccc1C(=O)NC3Cc1ccccc1 (configuration not stated) | – | · | · | · | ·
O=C1NC(Cc2ccc(O)cc2)c2nc3ccccc3c(=O)n2-c2cc(Cl)ccc21 (configuration not stated) | – | · | · | · | ·
Cc1cc(C)c2c(=O)n3c(nc2c1)C(C)NC(=O)c1cccnc1-3 (configuration not stated) | · | · | · | – | –
O=C1NC(Cc2ccc(O)cc2)c2nc3ccc(Br)cc3c(=O)n2-c2cc3ccccc3cc21 (configuration not stated) | · | · | · | 12µM | 9.2µM
COc1ccc2nc3n(c(=O)c2c1)-c1cc2ccccc2cc1C(=O)NC3Cc1ccccc1 (configuration not stated) | · | · | · | ? | 21µM
